Results on two compounds are retold here after US9453014B2, “Cyclic amide derivatives as inhibitors of 11-β-hydroxysteroid dehydrogenase and uses thereof” (CONNEXIOS LIFE SCIENCES PVT. LTD., priority 2011, dated 2016).

Protein sequences, listed by entry. Tags and fused reporters are not part of them.
UniProt P28845, whole entry: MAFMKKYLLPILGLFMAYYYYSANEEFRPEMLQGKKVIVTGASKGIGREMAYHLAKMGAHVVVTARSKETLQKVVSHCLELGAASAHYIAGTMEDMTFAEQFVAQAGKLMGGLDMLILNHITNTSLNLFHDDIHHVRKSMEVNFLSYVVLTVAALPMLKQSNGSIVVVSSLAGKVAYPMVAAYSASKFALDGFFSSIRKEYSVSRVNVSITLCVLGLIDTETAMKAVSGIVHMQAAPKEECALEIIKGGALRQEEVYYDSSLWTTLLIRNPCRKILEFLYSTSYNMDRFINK

In this assay the target is human full length HSD11 β 1 (Homo sapiens, UniProt P28845). Nature of the assay: In Vitro HSD11β1 Inhibition Assay. The conditions noted are these: read-out: 11βHSD1 (IC50); CHO cells transiently expressing human HSD11β1; 200 nM cortisone+500 uM NADPH overnight; cortisone to cortisol by LC/MS-MS.

For orientation: IC50 means the concentration that gives 50% inhibition. Regarding `O=C(O)C1CCN(C(=O)CC(c2ccccc2)c2c[nH]c3cccc(F)c23)C2CCCCC12` (centres unmarked), the half-inhibitory concentration (IC50) lay in the range of 100 to 150 nM.

Regarding `O=C(O)C1CCN(C(=O)CC(c2ccccc2)c2c[nH]c3cc(F)ccc23)C2CCCCC12` (centres unmarked), the IC50 fell in the range of 100 to 150 nM.
